# Measured values taken from patent publication US20040062729A1, “Photoprotective sunscreen compositions comprising 1,3,5-triazine compounds and triesters of benenetricarboxylic acids” (SOCIETE L'OREAL S.A., priority 2001, published 2004).
# Conditions: 5 g 2,4-bis{[4-2-ethylhexyl-oxy)]-2-hydroxy]phenyl}-6-(4-methoxyphenyl)-1,3,5-triazine in 20 g solvent oil, heated to 83° C., cooled
substance,measurement,setting,value
Oxypropylenated dimyristyl adipate (3 PO),"Presence of crystals, storage in the cold (+4° C.) for 4 days",+4° C.,Crystals
same,"Presence of crystals, storage at room temperature for 4 days",room temperature,Crystals
